For three compounds, EC50 results are on record in BindingDB's records for doi:10.1016/j.bmc.2006.10.040 (University of Camerino, 2007).

Sequences of proteins named here, by UniProt entry; tags and fusion partners are left off. A change or cut given only in a name is not applied to a line headed by its entry.
UniProt P11229: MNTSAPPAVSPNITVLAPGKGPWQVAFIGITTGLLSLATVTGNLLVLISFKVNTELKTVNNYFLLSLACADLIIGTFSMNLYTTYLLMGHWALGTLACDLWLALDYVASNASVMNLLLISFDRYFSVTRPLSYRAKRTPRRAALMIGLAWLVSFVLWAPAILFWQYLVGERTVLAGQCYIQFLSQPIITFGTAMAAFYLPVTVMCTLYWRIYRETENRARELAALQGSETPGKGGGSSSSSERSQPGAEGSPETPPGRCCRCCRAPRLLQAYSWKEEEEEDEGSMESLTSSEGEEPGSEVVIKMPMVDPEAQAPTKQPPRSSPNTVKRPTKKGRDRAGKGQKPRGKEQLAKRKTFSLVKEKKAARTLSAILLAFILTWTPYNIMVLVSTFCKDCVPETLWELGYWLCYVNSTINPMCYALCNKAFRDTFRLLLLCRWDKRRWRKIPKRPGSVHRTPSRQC

The target of the assay is Muscarinic acetylcholine receptor M1 (Homo sapiens, UniProt P11229).
Compound `CC1COCC(C[N+](C)(C)C)O1` (stereo not drawn) registered an EC50 of 38.9 µM.

The compound `C[C@@H]1COC[C@H](C[N+](C)(C)C)O1` had an EC50 of 794 µM.

Consider `C[C@H]1COC[C@@H](C[N+](C)(C)C)O1`, for which the response was half-maximal at 8.31 µM (EC50). Compared with the last compound, the EC50 is about 96-fold lower.

Broadly, the EC50 is the concentration at which the effect is half-maximal.
